Tests used:
[1] = target: purified human autoBACE-2 (Homo sapiens (Human), UniProt Q9Y5Z0); assay: BACE-2 Assay (BACE-HTRF assay); conditions: read-out: BACE-2 Ki; Ki calculated from IC50 using the Cheng-Prusoff equation; QSY7-EISEVNLDAEFC-Eu-amide substrate, pH 5.0
Experimental: Inhibitor IC50s at purified human autoBACE-2 are determined in a time-resolved endpoint proteolysis assay that measures hydrolysis of the QSY7-EISEVNLDAEFC-Eu-amide FRET peptide substrate (BACE-HTRF assay). BACE-mediated hydrolysis of this peptide results in an increase in relative fluorescence (RFU) at 620 nm after excitation with 320 nm light. Inhibitor compounds, prepared at 3× the desired final concentration in 1×BACE assay buffer (20 mM sodium acetate pH 5.0, 10% glycerol, 0.1% Brij-35) supplemented with 7.5% DMSO are preincubated with an equal volume of autoBACE-2 enzyme diluted in 1×BACE assay buffer (final enzyme concentration 1 nM) in black 384-well NUNC plates for 30 minutes at 30° C. […] Following laser excitation of sample wells at 320 nm, the fluorescence signal at 620 nm is collected for 400 ms following a […] on a RUBYstar HTRF plate reader (BMG Labtechnologies). […] IC50s are determined by nonlinear regression analysis (sigmoidal dose response, variable slope) of percent inhibition data with minimum and maximum values set to 0 and 100 percent respectively. […] The Ki values are calculated from the IC50 using the Cheng-Prusoff equation.

The chains behind the UniProt entries cited, without tags or fusion partners. Residues count along the entry.
UniProt Q9Y5Z0, 63-473 limits assumed: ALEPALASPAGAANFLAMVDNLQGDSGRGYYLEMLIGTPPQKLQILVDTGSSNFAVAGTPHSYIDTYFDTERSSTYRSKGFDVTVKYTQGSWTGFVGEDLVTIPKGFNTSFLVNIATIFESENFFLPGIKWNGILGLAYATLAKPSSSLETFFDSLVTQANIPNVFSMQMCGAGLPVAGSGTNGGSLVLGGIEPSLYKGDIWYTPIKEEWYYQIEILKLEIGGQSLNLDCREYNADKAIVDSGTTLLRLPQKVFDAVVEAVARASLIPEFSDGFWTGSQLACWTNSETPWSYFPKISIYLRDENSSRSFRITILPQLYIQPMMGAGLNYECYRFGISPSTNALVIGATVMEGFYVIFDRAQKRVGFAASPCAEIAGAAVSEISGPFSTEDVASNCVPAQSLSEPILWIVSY
UniProt P56817, 75-416 limits assumed: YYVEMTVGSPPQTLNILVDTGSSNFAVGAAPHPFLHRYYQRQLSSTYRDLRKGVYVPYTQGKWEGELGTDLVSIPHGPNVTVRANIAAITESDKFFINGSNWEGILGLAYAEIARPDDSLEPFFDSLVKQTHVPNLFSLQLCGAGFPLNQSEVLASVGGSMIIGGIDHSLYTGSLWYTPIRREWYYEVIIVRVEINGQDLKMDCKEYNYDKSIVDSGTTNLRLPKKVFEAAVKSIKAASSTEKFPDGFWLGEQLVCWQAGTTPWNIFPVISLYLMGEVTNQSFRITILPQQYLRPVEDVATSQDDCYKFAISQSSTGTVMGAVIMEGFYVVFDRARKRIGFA

[2] = target: soluble human BACE1 catalytic domain (Homo sapiens (Human), UniProt P56817); assay: BACE1 HTRF FRET Assay; conditions: read-out: BACE-1 Ki; Ki calculated from IC50 using the Cheng-Prusoff equation; QSY7-APPswe-Eu substrate, pH 5.0
From the text: • Reagents: Na^+-Acetate pH 5.0; 1% Brij-35; Glycerol; Dimethyl Sulfoxide (DMSO); Recombinant human soluble BACE1 catalytic domain (>95% pure); APP Swedish mutant peptide substrate (QSY7-APP^swe-Eu): QSY7-EISEVNLDAEFC-Europium-amide.
A homogeneous time-resolved FRET assay can be used to determine IC50 values for inhibitors of the soluble human BACE1 catalytic domain. This assay monitors the increase of 620 nm fluorescence that resulted from BACE1 cleavage of an APPswedish APP^swe mutant peptide FRET substrate (QSY7-EISEVNLDAEFC-Europium-amide). This substrate contains an N-terminal QSY7 moiety that serves as a quencher of the C-terminal Europium fluorophore (620 nm Em). In the absence of enzyme activity, 620 nm fluorescence is low in the assay and increased linearly over 3 hours in the presence of uninhibited BACE1 enzyme. Inhibition of BACE1 cleavage of the QSY7-APP^swe-Eu substrate by inhibitors is manifested as a suppression of 620 nm fluorescence.
Varying concentrations of inhibitors at 3× the final desired concentration in a volume of 10 ul are preincubated with purified human BACE1 catalytic domain (3 nM in 10 μl) for 30 minutes at 30° C. in reaction buffer containing 20 mM Na-Acetate pH 5.0, 10% glycerol, 0.1% Brij-35 and 7.5% DSMO. […]

Row | Compound | Ki [1] [nM] | Ki [2] [nM]
1 | COC[C@H]1C[C@@H]2[C@](c3cc(Oc4ccncc4F)ccc3F)(CO1)NC(=N)N(C)S2(=O)=O | 36 | 28
2 | COc1cncc(Oc2ccc(F)c([C@]34CO[C@@H](C)C[C@H]3S(=O)(=O)N(C)C(=N)N4)c2)n1 | 9.6 | 7.3
